The test has as its target T1, IgG1-Fc (human, UniProt P01857, in part = IgG part).
T1 construct: domain: Fc
The experiment in a line: ELISA.

B1: MBL (receptor, UniProt P11226 21-248, looked up)
chain: ETVTCEDAQKTCPAVIACSSPGINGFPGKDGRDGTKGEKGEPGQGLRGLQGPPGKLGPPGNPGPSGSPGPKGQKGDPGKSPDGDSSLAASERKALQTEMARIKKWLTFSLGKQVGNKFFLTNGEIMTFEKVKALCVKFQASVATPRNAAENGAIQNLIKEEAFLGITDEKTEGQFVDLTGNRLTYTNWNEGEPNNAGSDEDCVLLLKNGQWNDVPCSTSHLAVCEFPI
Regarding B1, the binding result was “no binding”.

The record behind these values is patent US20210024615A1 (LIVERPOOL SCHOOL OF TROPICAL MEDICINE, published 2021).
